{
  "sequences": {"note": "Sequences of proteins named here, by UniProt entry; tags and fusion partners are left off.", "UniProt O75874, whole entry R132C": "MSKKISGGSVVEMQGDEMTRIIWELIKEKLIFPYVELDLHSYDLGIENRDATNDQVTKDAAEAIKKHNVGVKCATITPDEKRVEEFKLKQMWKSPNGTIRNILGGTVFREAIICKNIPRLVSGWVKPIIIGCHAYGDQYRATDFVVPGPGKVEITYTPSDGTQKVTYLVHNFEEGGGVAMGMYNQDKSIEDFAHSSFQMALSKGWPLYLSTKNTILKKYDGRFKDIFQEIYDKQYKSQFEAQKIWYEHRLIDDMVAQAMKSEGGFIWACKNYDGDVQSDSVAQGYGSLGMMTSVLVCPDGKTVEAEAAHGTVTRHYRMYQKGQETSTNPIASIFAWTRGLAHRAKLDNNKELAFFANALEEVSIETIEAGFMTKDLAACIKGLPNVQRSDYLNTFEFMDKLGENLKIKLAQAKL", "UniProt O75874, whole entry R132H": "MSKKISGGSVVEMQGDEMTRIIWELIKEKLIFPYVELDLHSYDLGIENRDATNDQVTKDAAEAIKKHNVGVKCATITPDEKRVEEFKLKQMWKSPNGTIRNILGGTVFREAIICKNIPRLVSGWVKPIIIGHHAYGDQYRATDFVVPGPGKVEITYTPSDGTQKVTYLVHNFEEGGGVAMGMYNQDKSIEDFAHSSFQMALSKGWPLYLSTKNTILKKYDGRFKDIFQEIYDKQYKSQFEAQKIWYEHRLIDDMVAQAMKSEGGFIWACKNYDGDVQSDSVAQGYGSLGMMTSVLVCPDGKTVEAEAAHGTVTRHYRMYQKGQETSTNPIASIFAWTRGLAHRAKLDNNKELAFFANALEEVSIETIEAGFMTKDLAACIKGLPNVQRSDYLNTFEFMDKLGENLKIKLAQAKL"},
  "source": "patent US12018023B2",
  "about": "(NERVIANO MEDICAL SCIENCES S.R.L., priority 2018, dated 2024)",
  "key": {"[1]": {"biological_target": "IDH1^R132H homodimer enzyme (Homo sapiens, UniProt O75874, R132H)", "experiment": "NADPH depletion assay, IDH1 R132H", "conditions": "read-out: IDH1^R132H IC50", "procedure": "(§1) IDH mutated enzyme activity converting alpha-ketoglutarate to 2-hydroxyglutaric acid is measured using a NADPH depletion assay. In the assay the remaining cofactor is measured at the end of the reaction with the addition of a catalytic excess of diaphorase and resazurin, to generate a fluorescent signal in proportion to the amount of NADPH remaining. IDH1 WT enzyme as well as mutated isoforms IDH1^R132H, IDH1^R132C, and IDH^2R172K enzymes are commercially available proteins (see e.g. Sino Biological, Abcam, Active Motif or Creative BioMart).\n(§2) IDH1^R132H homodimer enzyme are diluted to 8 nM, in 10 μL of Assay Buffer (150 mM NaCl, 50 mM Tris-HCl pH 7.6, 10 mM MgCl2, 0.001% Triton X-100, 4 mM β-mercaptoethanol); 0.2 uL of test compound, previously serially diluted 1 to 3, >10 experimental points from 1 mM in DMSO, is added and the mixture is incubated for 15 minutes at room temperature. The reaction is started with the addition of 10 μL of Substrate Mix (12 uM NADPH, 3.4 mM alpha-ketoglutarate in Assay Buffer) and the mixture is incubated for 60 minutes at room temperature. The reaction is terminated with the addition of 5 μl of Detection Buffer (100 μg/mL diaphorase, 30 μM resazurin, in IX Assay Buffer), and is incubated for 15 minute before reading on a ViewLux as platereader at Ex544/Em590."}, "[2]": {"biological_target": "IDH1^R132C (Homo sapiens, UniProt O75874, R132C)", "experiment": "NADPH depletion assay, IDH1 R132C", "conditions": "read-out: IDH1^R132C IC50", "procedure": "as §1\nas §2, with “Ex544/Em590. […]” for “Ex544/Em590.”"}},
  "note": "pIC50: −log10 of the molar value.",
  "data": [
    {"smiles": "C[C@H](Nc1ncc2ccc(=O)n(CC(C)(C)CO)c2n1)c1ccc(-c2cnn(C)c2)cc1", "values": [
      {"measurement": "pIC50", "setting": "[1]", "value": 6.40},
      {"measurement": "pIC50", "setting": "[2]", "value": 6.69}
    ]}
  ]
}
